Experimental data published in ChEMBL document CHEMBL5532701 (RSC Med Chem, 2024).
Calls of active or inactive are those of the source. The rule behind the calls is not given here.

Columns and labels:
[1] = target: T1, 1-deoxy-D-xylulose-5-phosphate synthase (Pseudomonas aeruginosa (strain LESB58)) (UniProt B7V7R4); conditions: dose 1.0 mM, time 10.0 min
T1 sequence (whole entry): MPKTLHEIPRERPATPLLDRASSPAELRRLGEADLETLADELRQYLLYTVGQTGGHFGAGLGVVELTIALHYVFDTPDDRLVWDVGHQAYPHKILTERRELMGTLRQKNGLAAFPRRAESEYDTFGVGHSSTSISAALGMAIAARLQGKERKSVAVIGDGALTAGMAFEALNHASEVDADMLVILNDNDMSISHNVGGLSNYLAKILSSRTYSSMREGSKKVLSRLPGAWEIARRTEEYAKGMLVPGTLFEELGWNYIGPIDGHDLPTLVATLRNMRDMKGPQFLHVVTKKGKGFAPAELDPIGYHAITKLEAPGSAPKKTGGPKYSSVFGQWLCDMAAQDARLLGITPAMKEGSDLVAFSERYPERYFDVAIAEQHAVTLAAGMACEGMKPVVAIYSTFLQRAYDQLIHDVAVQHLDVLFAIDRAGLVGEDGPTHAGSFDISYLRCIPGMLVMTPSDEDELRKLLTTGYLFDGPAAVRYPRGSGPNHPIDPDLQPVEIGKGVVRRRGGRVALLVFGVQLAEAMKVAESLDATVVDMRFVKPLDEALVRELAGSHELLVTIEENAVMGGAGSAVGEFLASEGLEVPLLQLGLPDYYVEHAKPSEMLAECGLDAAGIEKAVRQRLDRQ

[2] = target: T2, 1-deoxy-D-xylulose-5-phosphate synthase (Klebsiella pneumoniae) (UniProt B5Y0X1); conditions: dose 1.0 mM, time 10.0 min
T2 sequence (whole entry): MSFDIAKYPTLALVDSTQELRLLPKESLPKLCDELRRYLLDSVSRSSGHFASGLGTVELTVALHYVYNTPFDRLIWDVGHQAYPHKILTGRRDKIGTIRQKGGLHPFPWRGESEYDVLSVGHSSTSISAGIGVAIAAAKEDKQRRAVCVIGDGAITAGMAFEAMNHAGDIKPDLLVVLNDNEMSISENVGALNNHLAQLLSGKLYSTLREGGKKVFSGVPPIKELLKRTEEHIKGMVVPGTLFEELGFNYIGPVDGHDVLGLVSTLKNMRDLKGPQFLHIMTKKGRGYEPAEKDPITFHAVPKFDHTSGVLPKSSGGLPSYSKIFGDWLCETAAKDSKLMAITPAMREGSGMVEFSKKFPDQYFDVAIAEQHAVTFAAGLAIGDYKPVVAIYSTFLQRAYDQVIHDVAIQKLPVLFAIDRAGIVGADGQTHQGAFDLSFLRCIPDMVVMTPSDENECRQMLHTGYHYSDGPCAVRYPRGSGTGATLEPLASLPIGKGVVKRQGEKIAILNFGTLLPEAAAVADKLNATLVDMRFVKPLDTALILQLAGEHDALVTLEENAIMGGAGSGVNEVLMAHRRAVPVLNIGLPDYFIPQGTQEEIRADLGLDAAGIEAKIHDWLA

[3] = test system: Saccharomyces cerevisiae; conditions: dose 1.0 mM, time 60.0 min
[4] = test system: Aerococcus viridans; conditions: dose 1.0 mM, time 30.0 min

Structure (SMILES)	inhibition [1]	inhibition [2]	inhibition [3]	inhibition [4]
CC1(C)C(=O)ON(Cc2ccccc2Cl)C1=O [KETOCLOMAZONE]	< 16%	< 16%	inactive	inactive
CC(C)(C(=O)O)C(=O)N(O)Cc1ccccc1Cl	< 16%	< 16%	inactive	inactive
